Results taken from PubChem BioAssay AID651644 (National Center for Advancing Translational Sciences (NCATS), 2012).
Only a part is listed here, and it is no random draw. Some tests of the compounds listed are not included; inactive here does not mean inactive elsewhere. Active and inactive are the calls of the source. The call rests on the fitted dose curve; in most records, active means well fitted falling curve with a large enough effect; inconclusive means small, poorly fitted or top-dose-only effect; inactive means no such curve, though single readings can be large or run the other way.

experiment: qHTS Assay for Inhibitors of the HIV-1 protein Vpr; further: nearly all actives have a fitted effect of over 50% in size; conditions: S. pombe RE007 Vpr strain, BacTiter-Glo ATP luminescence, 24 h; at 92.2 µM (top of the series)
On the % scale 0 is the no-effect control and ±100 the full control effect.

Compound | activity change, negative = less growth
COc1ccc(Cl)cc1C(=O)NCC1(N(C)C)CCCCC1 | inactive: -7%
COc1cccc(C(=O)NCC2(N3CCCCC3)CCCCC2)c1 | inactive: -1.54%
O=C(NCC1(N2CCCCC2)CCCCC1)c1cccc(Cl)c1 | inactive: -14.2%
CN(C)C1(CNC(=O)c2ccc(Br)cc2)CCCCC1 | inactive: -19.9%
COc1cc(C(=O)NCC2(N(C)C)CCCCC2)c([N+](=O)[O-])cc1OC | inactive: -1.26%
COc1ccc(Br)c(C(=O)NCC2(N3CCCCC3)CCCCC2)c1 | inactive: -6.08%
C=C(C)C#CC(O)(C(=O)OC1CCN(C)CC1)c1ccccc1 (stereo unspecified) | inactive: 17.2%
CN(C)c1cccc(C(=O)NCC2(N(C)C)CCCCC2)c1 | inactive: 4.44%
O=C(OCCN1CCCC1)C(O)(c1ccccc1)c1ccccc1 | inactive: -0.61%
CC(C)Oc1ccc(C(=O)NCC2(N(C)C)CCCCC2)cc1 | inactive: 15.9%
O=C(OC1CN2CCC1CC2)C(CO)(c1ccccc1)c1ccccc1 (stereo unspecified) | inactive: -6.01%
CC(C)N1C(=O)CC2(CCN(CCOC(=O)C(O)(c3ccccc3)c3ccccc3)CC2)C1=O | inactive: 0.621%
COc1cc(SC)ccc1C(=O)NCC1(N(C)C)CCCCC1 | inactive: 4.82%
CCN(CC)CC(C)C(C)OC(=O)C(O)(c1ccccc1)c1ccccc1 (stereo unspecified) | inactive: -6.25%
Cc1ccc(C(=O)NCC2(N3CCCCC3)CCCCC2)cc1 | inactive: -10.9%
O=C(NCC1(N2CCCCC2)CCCCC1)c1cc([N+](=O)[O-])ccc1Cl | inactive: -13.1%
CN1[C@@H]2CC[C@H]1CC(OC(=O)C(O)(c1ccccc1)c1ccccc1)C2 (stereo partly specified) | inactive: -3.46%
O=C(NCC1(N2CCCCC2)CCCCC1)c1cc(F)c(F)cc1Cl | inactive: 7.08%
C=CCN1CCN(CCOC(=O)C(O)(c2ccccc2)c2ccccc2)CC1 | inactive: 0.572%
O=C(NCC1(N2CCCCC2)CCCCC1)c1cccc(Br)c1 | inactive: 5.53%
Cc1cc(C(=O)NCC2(N3CCCCC3)CCCCC2)ccc1[N+](=O)[O-] | inactive: -17.4%
CCN1CCCC(OC(=O)C2(O)c3ccccc3C=Cc3ccccc32)C1 (stereo unspecified) | inactive: -0.12%
COc1ccc(C(=O)NCC2(N(C)C)CCCCC2)cc1 | inactive: 11.3%
CN(C)C1CCCC1OC(=O)C(O)(c1ccccc1)c1ccccc1 (stereo unspecified) | inactive: 5.98%
CN(C)c1ccc(C(=O)NCC2(N(C)C)CCCCC2)cc1 | inactive: 8.8%
Cc1ccccc1C(=O)NCC1(N2CCCCC2)CCCCC1 | inactive: -2.78%
